# Source: patent US4822775A, “Phenyl substituted dipeptide amides” (priority 1986, dated 1989)
# Target: opiate receptors isolated from rat brain
# Settings: 1 nM 3H-Naloxone, rat brain receptor membranes; standard screening dose 10^-5 molar (words such as Inactive refer to it); read-out: Opiate Binding, IC50
# Method: Opiate Binding Assay. The test compounds were evaluated for their ability to displace the binding of ^3 H-Naloxone to opiate receptors isolated from rat brain. […] A purified homogenate of receptor membranes was prepared from the brains according to the method described by Chang and Cuatrecasas. (K.-J. Chang and P. Cuatrecasas. Multiple Opiate Receptors: Enkephalins And Morphine Bind To Receptors Of Different Specificity. J. Biol. Chem. 254, 2610-2618 (1979).) The brains were homogenized in 10 volumes of 0.32M sucrose and centrifuged twice at 6,000xg for 15 minutes. […] The supernatant was centrifuged at 40,000xg. […] The final pellet was resuspended in 2 volumes of 50 mM tris HCl (pH 7.4).
# Levorphanol (1×10^-5 M) was used as the displacer for non-specific binding. […] Total assay volume was 1.0 ml.
row,Substance,IC50 [nM]
1,"2,6-dimethyl-L-tyrosyl-N-[2-(2-thienyl)ethyl]-D-alaninamide, monohydrochloride [Example 39]",1.2
2,"α-amino-4-hydroxy-2,6-dimethyl-N-[1R-methyl-2-oxo-2-(1,2,3,4-tetrahydro-1-quinolinyl)ethyl]benzenepropanamide, monohydrochloride [Example 30]",61
